This is a selection; strong and weak results do not stand in their true shares. Some structures show a salt or complex split into parts, the way the source records it. The source made the active and inactive calls. Cut-off read from the data, not from the text of the source: active = inhibition above about 12%; inconclusive = no clear call, values can overlap the other calls; inactive = below about 7.3%.
target: Kelch-like ECH-associated protein 1 (Homo sapiens) (UniProt Q14145); experiment: Keap1-Nrf2 protein-protein interaction inhibitors, primary screen, biochemical, fluorescence polarization, single point (AID 504523); conditions: Keap1 Kelch-Nrf2 peptide fluorescence polarization, 1536-well; at 9.4 µM; stronger effect = higher value;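 note: human Keap1 Kelch domain with fluorescein labeled Nrf2 9mer peptide probe; 0% = neutral control wells and 100% = peptide positive control; higher means more block of Keap1 binding to Nrf2 peptide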

Sequences of proteins named here, by UniProt entry; tags and fusion partners are left off.
UniProt Q14145, whole entry: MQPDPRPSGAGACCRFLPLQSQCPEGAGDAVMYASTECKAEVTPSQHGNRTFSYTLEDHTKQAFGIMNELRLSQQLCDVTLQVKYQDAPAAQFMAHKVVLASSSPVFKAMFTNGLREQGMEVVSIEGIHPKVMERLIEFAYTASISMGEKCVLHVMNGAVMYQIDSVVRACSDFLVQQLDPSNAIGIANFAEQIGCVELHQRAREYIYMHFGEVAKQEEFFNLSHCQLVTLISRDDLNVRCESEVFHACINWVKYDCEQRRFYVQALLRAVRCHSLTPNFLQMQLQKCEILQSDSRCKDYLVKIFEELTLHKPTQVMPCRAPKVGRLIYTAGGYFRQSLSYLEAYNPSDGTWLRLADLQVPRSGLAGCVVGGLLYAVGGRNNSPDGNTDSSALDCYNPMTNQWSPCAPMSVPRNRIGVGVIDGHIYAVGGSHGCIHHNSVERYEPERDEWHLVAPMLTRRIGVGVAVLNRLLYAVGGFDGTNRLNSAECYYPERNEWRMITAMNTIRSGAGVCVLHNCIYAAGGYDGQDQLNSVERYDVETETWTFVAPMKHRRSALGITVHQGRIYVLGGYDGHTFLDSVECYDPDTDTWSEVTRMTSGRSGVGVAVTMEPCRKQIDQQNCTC
UniProt Q16236, whole entry partner: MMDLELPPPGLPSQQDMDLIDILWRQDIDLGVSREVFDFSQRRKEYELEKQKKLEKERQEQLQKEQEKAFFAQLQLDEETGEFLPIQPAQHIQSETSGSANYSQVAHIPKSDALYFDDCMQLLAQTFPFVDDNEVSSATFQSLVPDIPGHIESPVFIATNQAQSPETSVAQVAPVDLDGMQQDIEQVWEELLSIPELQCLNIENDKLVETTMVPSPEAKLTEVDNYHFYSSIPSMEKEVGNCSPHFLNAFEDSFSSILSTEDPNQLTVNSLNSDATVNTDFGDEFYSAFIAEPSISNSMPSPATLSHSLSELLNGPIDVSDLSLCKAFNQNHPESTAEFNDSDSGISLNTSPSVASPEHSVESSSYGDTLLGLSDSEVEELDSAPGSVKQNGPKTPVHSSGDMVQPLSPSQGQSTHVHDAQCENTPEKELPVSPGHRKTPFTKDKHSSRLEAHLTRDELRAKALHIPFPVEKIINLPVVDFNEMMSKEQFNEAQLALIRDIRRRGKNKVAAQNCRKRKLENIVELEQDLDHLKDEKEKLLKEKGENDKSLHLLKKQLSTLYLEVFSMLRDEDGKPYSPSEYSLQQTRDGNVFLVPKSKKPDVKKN

Structure (SMILES)	inhibition
Cc1cc(C)cc(OP(C)(=O)Nc2ccc(C)cc2C)c1 (stereo not given)	inactive: 0.472%
CCOC(=O)c1ccc(NP(C)(=O)Oc2cc(C)cc(C)c2)cc1 (stereo not given)	inactive: 7.28%
COc1ccccc1OP(C)(=O)Nc1cccc(Br)c1 (stereo not given)	inactive: -0.638%
Cc1cc(C)cc(OP(C)(=O)Nc2ccccn2)c1 (stereo not given)	inactive: -3.44%
CP(=O)(Nc1cccc(Br)c1)Oc1ccccc1 (stereo not given)	inactive: -0.775%
Cc1ccc(C)c(NP(C)(=O)Oc2ccccc2)c1 (stereo not given)	inactive: 0.303%
O=C(O)c1cccc(Nc2c([N+](=O)[O-])cc([N+](=O)[O-])cc2[N+](=O)[O-])c1	inactive: -6.72%
CC1=NCCc2c1[nH]c1ccccc21.O=[N+]([O-])c1cc([N+](=O)[O-])c(O)c([N+](=O)[O-])c1	inactive: -3.97%
CCOC(=O)C(CC)C1=NC(C)(C)Cc2ccccc21.O=[N+]([O-])c1cc([N+](=O)[O-])c(O)c([N+](=O)[O-])c1 (stereo not given)	inactive: -5.43%
CC1=C2N=C(C=C3N=C(C(C)=C4[N-][C@@](C)([C@@H]5N=C1[C@](C)(CCC(=O)NC[C@@H](C)OP(=O)([O-])O[C@H]1[C@@H](O)[C@@H](n6cnc7cc(C)c(C)cc76)O[C@@H]1CO)[C@H]5CC(N)=O)[C@@](C)(CC(N)=O)[C@@H]4CCC(N)=O)[C@@](C)(CC(N)=O)[C@@H]3CCC(N)=O)C(C)(C)[C@@H]2CCC(N)=O.[C-]#N.[Co+3]	inactive: -1.67%
O=[N+]([O-])c1cc([N+](=O)[O-])c(Nc2nnnn2CCO)c([N+](=O)[O-])c1	inactive: 0.16%
CCCOc1ccc(NP(C)(=O)Oc2ccc(Cl)cc2)cc1 (stereo not given)	inactive: 3.28%
CP(=O)(Nc1ccc(SC(F)(F)F)cc1)Oc1ccccc1 (stereo not given)	inactive: 1.71%
COc1ccccc1OP(C)(=O)Nc1c(C)cccc1C (stereo not given)	inactive: -1.47%
CN1CCCCC1COC(=O)C1(O)c2ccccc2CCc2ccccc21 (stereo not given)	inactive: -3.15%
O=[N+]([O-])c1cc([N+](=O)[O-])c(-n2nnc3ccccc32)c([N+](=O)[O-])c1	inactive: 0.45%
Cc1nc2ccc3ccccc3c2s1.O=[N+]([O-])c1cc([N+](=O)[O-])c(O)c([N+](=O)[O-])c1	inactive: -1.63%
O=[N+]([O-])c1cc([N+](=O)[O-])c(-c2cnn(-c3ccccc3)c2)c([N+](=O)[O-])c1	inactive: 0.843%
Cc1cc(C)cc(OP(C)(=O)Nc2ccc(SC(F)(F)F)cc2)c1 (stereo not given)	inactive: -3.76%
CP(=O)(NC(=O)Nc1ccccc1)Oc1ccccc1 (stereo not given)	inactive: -2.02%
CCc1ccc(OP(C)(=O)N2CCN(c3ccc([N+](=O)[O-])cc3)CC2)cc1 (stereo not given)	inactive: -7.69%
CP(=O)(Oc1ccccc1)OC(c1ccccc1)C(F)(F)F (stereo not given)	inactive: 1.84%
Cc1cccc(C)c1OP(C)(=O)Nc1ccc(SC(F)(F)F)cc1 (stereo not given)	inactive: -0.858%

Structure (SMILES)	inhibition
CP(=O)(Nc1ccccn1)Oc1ccc(Cl)cc1 (stereo not given)	inactive: -0.7%
CCOP(C)(=S)SCC(=O)NC(C)C(=O)O (stereo not given)	inactive: -1.16%
CCOC(=O)c1ccc(NP(C)(=O)Oc2ccc(OC)cc2)cc1 (stereo not given)	inactive: 0.899%
COc1ccccc1OP(C)(=O)Nc1ccccc1 (stereo not given)	inactive: 0.039%
CP(=O)(Nc1ccccc1Br)Oc1ccccc1 (stereo not given)	inactive: 0.168%
CP(=S)(Nn1cnnc1)Oc1ccccc1 (stereo not given)	inactive: 1.44%
Cc1cccc(C)c1OP(C)(N)=O (stereo not given)	inactive: 2.11%
CC(C)(C)c1ccc(OP(C)(=O)Nc2ccc(SC(F)(F)F)cc2)cc1 (stereo not given)	inactive: -6.47%
O=[N+]([O-])c1ccc2c(c1)C=Nc1ccccc1O2	inactive: -6.63%
O=[N+]([O-])c1cc([N+](=O)[O-])c(Nc2cccnc2)c([N+](=O)[O-])c1	inactive: -0.435%
COc1ccc(OP(C)(=O)Nc2cccc(F)c2)cc1 (stereo not given)	inactive: -7.33%
COc1ccccc1OP(C)(=O)Nc1cc(Cl)ccc1C (stereo not given)	inactive: 0.112%
Cc1cc(C)cc(OP(C)(N)=O)c1 (stereo not given)	inactive: -5.51%
CCOC(=O)c1ccc(NP(C)(=O)Oc2ccccc2)cc1 (stereo not given)	inactive: -0.593%
Cc1ccc(NP(C)(=O)Oc2ccccc2)c(C)c1 (stereo not given)	inactive: -1.5%
COc1ccccc1OP(C)(=O)Nc1ccc(C)cc1 (stereo not given)	inactive: -4.54%
CCN(CC)CCCOC(=O)C(O)(c1ccccc1)c1ccccc1	inactive: 2.53%
CN(C)CCOC(=O)C(O)(c1ccccc1)C1CCCC1 (stereo not given)	inactive: -2.31%
COc1ccc(OP(C)(=O)Nc2ccccn2)cc1 (stereo not given)	inactive: -5.87%
COc1ccccc1OP(C)(=O)Nc1ccc(Br)cc1 (stereo not given)	inactive: -2.48%
CCc1ccc(OP(C)(=O)O)cc1	inactive: -2.25%
COc1ccccc1OP(C)(=O)Nc1ccc(C)cc1C (stereo not given)	inactive: 3.5%
CP(=O)(Nc1ccccn1)Oc1ccccc1 (stereo not given)	inactive: -1.89%

Structure (SMILES)	inhibition
Cc1c(NP(C)(=O)Oc2ccc(C(C)C)cc2)c(=O)n(-c2ccccc2)n1C (stereo not given)	inactive: 4.8%
O=[N+]([O-])c1cc([N+](=O)[O-])c(Nc2ccccn2)c([N+](=O)[O-])c1	inactive: -2.58%
COc1ccc(OP(C)(=O)Nc2ccccc2Br)cc1 (stereo not given)	inactive: -1.04%
COc1ccccc1OP(C)(=O)Nc1ccc(C)c(C)c1 (stereo not given)	inactive: -5.16%
Cc1cc(C)cc(OP(C)(=O)Nc2cccc(C(F)(F)F)c2)c1 (stereo not given)	inactive: 1.24%
O=C1C(O)=C([N+](=O)[O-])C(=O)C(O)=C1[N+](=O)[O-]	inactive: -4.96%
CCCCCCCCCCCCCCCC1C[N+](C)(C)CCOP(C)(=O)O1 (stereo not given)	inactive: 4.06%
CP(=O)(Nc1ccc(Cl)cc1Cl)Oc1ccccc1 (stereo not given)	inactive: -7.25%
CP(=O)(OCCOc1ccccc1)OCCOc1ccccc1	inactive: -2.87%
CP(=O)(OC12CC3CC(CC(C3)C1)C2)OC12CC3CC(CC(C3)C1)C2	inactive: -1.3%
CCOC(=O)c1ccc(NP(C)(=O)Oc2ccc(Cl)cc2)cc1 (stereo not given)	inactive: -6.93%
CCc1ccc(OP(C)(=O)Nc2cccnc2)cc1 (stereo not given)	inactive: -0.64%
CP(=O)(Oc1ccccc1)N1CCOC1=O (stereo not given)	inactive: -0.056%
O=C(OCCCN1CCCC1)C(O)(c1ccccc1)C1CCCCC1 (stereo not given)	inactive: 2.35%
COc1ccccc1OP(C)(=O)Nc1c(C)n(C)n(-c2ccccc2)c1=O (stereo not given)	inactive: -1.45%
COc1ccc(OP(C)(=O)Nc2ccc(Br)cc2)cc1 (stereo not given)	inactive: -5.93%
CCN(CC)CC(O)COC(=O)C(O)(c1ccccc1)C1CCCCC1 (stereo not given)	inactive: 1.83%
CN(C)C(=O)c1c([N+](=O)[O-])cc([N+](=O)[O-])cc1[N+](=O)[O-]	inactive: -4.45%
CP(=O)(Nc1ccc(Cl)cc1)Oc1ccc(F)cc1 (stereo not given)	inactive: -3.39%
COc1ccccc1OP(C)(=O)Nc1ccccc1Br (stereo not given)	inactive: -3.07%
CC(C)(C)c1ccc(OP(C)(=O)O)cc1	inactive: -3.66%
CCOP(C)(=S)SCC(=O)NC(C)(CC)C(=O)O (stereo not given)	inactive: -5.81%
CP(=O)(Nc1ccc(SC(F)(F)F)cc1)Oc1ccc(F)cc1 (stereo not given)	inactive: -3.89%

Structure (SMILES)	inhibition
Cc1ccccc1NP(C)(=O)Nc1ccccc1C	inactive: -1.06%
CP(=O)(Nc1ccc2c(c1)OCCO2)Oc1ccccc1 (stereo not given)	inactive: 0.526%
COc1ccc(NP(C)(=O)Oc2ccccc2OC)cc1 (stereo not given)	inactive: 2.12%
CN(C)CCOC(=O)C(O)(c1ccccc1)C1CCCCC1 (stereo not given)	inactive: -3.35%
COc1ccc(OP(C)(=O)Nc2cccc(Br)c2)cc1 (stereo not given)	inactive: 0.828%
Cc1c(C(c2ccc3c(c2)OCO3)c2c(C)n(C)n(-c3ccccc3)c2=O)c(=O)n(-c2ccccc2)n1C.O=[N+]([O-])c1cc([N+](=O)[O-])c(O)c([N+](=O)[O-])c1	inactive: -6.49%
Cc1cc(-c2cccc3ccccc23)c(C)cn1.O=[N+]([O-])c1cc([N+](=O)[O-])c(O)c([N+](=O)[O-])c1	inactive: -2.83%
O=[N+]([O-])c1cc([N+](=O)[O-])c(NCC2CCS(=O)(=O)C2)c([N+](=O)[O-])c1 (stereo not given)	inactive: -2.06%
O=[N+]([O-])c1ccc(OP2(=O)COCCO2)cc1 (stereo not given)	inactive: -2.57%
COc1ccc(OP(C)(=O)Nc2ccc(SC(F)(F)F)cc2)cc1 (stereo not given)	inactive: -1.4%
CCOC(=O)c1ccc(NP(C)(=O)Oc2ccc(F)cc2)cc1 (stereo not given)	inactive: -2.4%
CCCCCOc1ccc(NP(C)(=O)Oc2ccc(Cl)cc2Cl)cc1 (stereo not given)	inactive: -3%
O=[N+]([O-])c1cc([N+](=O)[O-])c(OC2CCCCC2O)c([N+](=O)[O-])c1 (stereo not given)	inactive: -1.12%
CP(=O)(Nc1ccccc1)Oc1ccc(F)cc1 (stereo not given)	inactive: -10.3%
CCN(CC)CCCOC(=O)C(O)(c1ccccc1)C1CCCCC1 (stereo not given)	inactive: -1.37%
Cc1c([N+](=O)[O-])cc([N+](=O)[O-])c(Br)c1[N+](=O)[O-]	inactive: -6.8%
CC(C)c1ccc(OP(C)(=O)Nc2ccc(SC(F)(F)F)cc2)cc1 (stereo not given)	inactive: 3.99%
CP(=O)(Nc1ccccc1F)Oc1ccccc1 (stereo not given)	inactive: -3.89%
COc1ccc2c(c1O)-c1c(O)c(OC)cc3c1[C@H](C2)[N+](C)(C)CC3.O=[N+]([O-])c1cc([N+](=O)[O-])c([O-])c([N+](=O)[O-])c1[O-]	inactive: 3.17%
O=C(OCCN1CCN(CCOCc2ccccc2)CC1)C(O)(c1ccccc1)c1ccccc1	inactive: -1.48%
O=C(OC1CN2CCC1CC2)c1ccc([N+](=O)[O-])cc1 (stereo not given)	inactive: -1.98%

— PubChem BioAssay AID504523 (Broad Institute, 2011)
